# Ab-91 heavy chain CDR variants: yeast mating affinities

All variants were tested on one target, the spike HR2 peptide PDVDLGDISGINAS (SARS-CoV-2).

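Phage display of a naive human antibody library on the peptide gave the parent. In library AAYL51, one, two or three CDR residues were substituted; doubles and triples were drawn at random. In AlphaSeq, yeast of one mating type display the scFv and yeast of the other type display the target. The frequency of each diploid, read from paired DNA barcodes, reflects how well the two displayed proteins bind. The ratio of observed to expected reads was calibrated, replicate by replicate, on BCL2-family standards whose Kd was known from biolayer interferometry. Each pool was mated in three replicate cultures.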

The variants keep the light chain, the linker and the frameworks of Ab-91 (scFv order VL, a 15-residue (Gly4Ser)3 linker, VH).
VL: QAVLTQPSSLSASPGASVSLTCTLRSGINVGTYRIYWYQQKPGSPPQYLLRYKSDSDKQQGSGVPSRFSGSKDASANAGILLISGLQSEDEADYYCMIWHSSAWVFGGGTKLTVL
VH: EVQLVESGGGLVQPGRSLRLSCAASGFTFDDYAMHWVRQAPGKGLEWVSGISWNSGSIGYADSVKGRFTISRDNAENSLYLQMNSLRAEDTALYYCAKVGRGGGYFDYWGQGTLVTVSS

Positions count from residue 1 of the parent VH; S55D puts D in place of S.
Every variant below is changed at G103 of the VH (sequential numbering).
The read-out is the apparent dissociation constant on a log10 scale (nM): the lower, the stronger.
Averages over replicates are reported, and they cover detected replicates only.
An entry "ND" has no value in the source: the pair was not observed among the diploids in that replicate. This suggests poor binding but is not conclusive.
As a blank, each scFv also met three strains without target: over library AAYL51, 21% of these pairings were detected, typically at 4.54 and seldom below 3.26.

For S55D+V99L+G103P, the assay gave ND, ND, ND. For S55D+D62R+G103K, the assay gave 4.73, 6.64, ND (mean 5.68). For H35M+G103C+D107T, the assay gave ND, ND, ND. For F27Y+A33Q+G103Y, the assay gave 3.23, ND, ND. With G50E+K65A+G103I the result was ND, ND, ND. Variant Y60K+G103Y+Y105I showed ND, ND, ND. For S52P+Y60I+G103Y, the assay gave ND, ND, ND.

Variant G103D+D107C+Y108A showed 3.34, 4.51, ND (mean 3.92). Variant S52N+R101D+G103I gave ND, 4.24, ND. Variant D30M+G50C+G103P showed ND, 4.44, ND. For G103F, the assay gave 1.75, 2.38, 1.81 (mean 1.98). Variant G103L showed ND, ND, ND. Variant I58K+G103M+F106M showed 4.26, ND, ND. For G26D+G103K+Y105S, the assay gave ND, 3.64, ND.

With M34Q+S52L+G103A the result was ND, ND, ND. Variant G50M+S52Y+G103Y showed ND, ND, ND. Variant G103P+Y108M gave ND, ND, ND. Variant D30R+S63A+G103W gave ND, ND, 3.98. With D31T+M34G+G103M the result was ND, ND, ND. For S57D+V99N+G103P, the assay gave 2.70, 2.86, 2.50 (mean 2.69). Variant S55D+G59H+G103E showed 4.71, ND, ND.

Variant G56L+S57R+G103W gave ND, 4.39, ND. With G59P+D62Y+G103V the result was 5.26, 4.97, ND (mean 5.11). For S52C+N54P+G103D, the assay gave 5.01, ND, 5.80 (mean 5.41). Variant Y60G+G103C+Y108S gave ND, ND, ND. For G26A+G103R+F106Y, the assay gave 4.03, 5.76, ND (mean 4.90). Variant I51G+V64M+G103V gave 5.16, ND, ND. For S63G+K65P+G103E, the assay gave 4.98, ND, ND.

Variant T28C+G59H+G103Q gave ND, ND, ND. For S57Q+G103W, the assay gave ND, ND, ND. Variant F29E+G103S+F106H showed ND, ND, ND. For G103V+F106V+Y108F, the assay gave 1.62, 1.66, 0.97 (mean 1.42). Variant D30P+G102C+G103N gave ND, ND, 4.99. Variant T28C+S63A+G103K showed 1.98, 2.89, 2.11 (mean 2.33). Variant S55I+S57H+G103A showed ND, ND, ND.

With A33R+R101V+G103T the result was ND, 5.38, ND. With G50L+R101Q+G103C the result was ND, 5.45, ND. With T28L+I51Y+G103F the result was 5.11, ND, ND. With G103A the result was ND, 5.90, ND. Variant Y60S+D62S+G103W showed 4.87, ND, 5.63 (mean 5.25). With S57E+G103R+G104Y the result was ND, ND, 3.89. For D31M+V99F+G103Y, the assay gave 2.51, 2.59, 2.80 (mean 2.63).

Variant F27L+I58A+G103L showed ND, ND, ND. For M34Q+S55K+G103Q, the assay gave ND, ND, ND.

Source: Engelhart et al. 2022 (doi:10.1038/s41597-022-01779-4), MIT Lincoln Laboratory and A-Alpha Bio; data file from the FLAb repository.